Compounds with a hit are over-represented: about 2.1% of the library has one in this group of screens.
PTAP TSG101 blk: blocks PTAP/TSG101 interaction to inhibit HIV-1 budding. Q99816. 340,000 tested, under 10 active. Potency, µM (top dose mostly 115 µM), for inactives: top-dose activity change, negative = inhibition, actives largely listed as inhibitors. Fluorescence polarization, FITC-PTAP peptide / Tsg101 binding. AID 493005; active = well fitted inhibition curve with a large enough effect in the main read-out, with a control signal flat, not every such curve was filed as active; inconclusive = small, poorly fitted or top-dose-only effect, or effect the other way, or a change in a side signal; inactive = no such curve, though single readings can be large or run the other way; note: potency is the fitted concentration of half-maximal effect; % of control where 0% means no effect
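Fluorescence polarization binding of Tsg101 binding domain (10 uM final) to FITC-labeled PTAP peptide (50 nM final) in HEPES pH 7.5 buffer with NaCl, Tween 20, EDTA, TCEP. Compounds added before peptide; binding 20 min at RT.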
Nrf2 inh: Nrf2 pathway inhibition | A549 ARE-Fluc reporter, luciferase luminescence, 18-24 h | Potency, µM (highest dose often 46 µM), for inactives: at the top dose activity change, negative = inhibition, usual class: inhibitors | 2.1% of 360,000 active | AID 504444; note: potency is the fitted concentration of half-maximal effect; % is set by controls: 0 for no effect and ±100 for the full control effect; nearly all actives have a fitted effect of over 60% in size
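Two sequential reads on A549 ARE_Fluc cells exposed to compound for 18-24 h: a CellTiter-Fluor fluorescence read for viability, then a luciferase luminescence read for Nrf2/ARE activity.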
A549 tox: kills or reduces viability of A549 cells in Nrf2 counter-screen | A549 ARE-Fluc cells, CellTiter-Fluor viability, 18-24 h | Potency, µM (series often up to 46 µM), without a hit: at the highest dose activity change, negative = cytotoxicity, usual class: inhibitors | 0.16% of 390,000 active | AID 504648; note: potency is the fitted concentration of half-maximal effect; % is set by controls: 0 for no effect and ±100 for the full control effect
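Cytotoxicity counterscreen: CellTiter-Fluor fluorescence was measured in A549 ARE_Fluc cells after 18-24 h of compound exposure in a concentration series. The subsequent BugLite luminescent read reports ARE-luciferase activity.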
GRP78 ERSR act: induces the endoplasmic reticulum stress response in human glioma cells; 0.02% of 420,000 active; Potency, µM, for the others: at the top dose activation, most hits filed as activators; U87-MG GRP78 promoter luciferase reporter, 16 h; note: potency is the fitted concentration of half-maximal effect; series mostly up to about 76 µM; % of control where 0% means no effect; nearly all actives have a fitted effect of over 35% in size
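Stably transfected U87-MG human glioma cells carrying a GRP78-based luminescent sensor were seeded at 1000 cells/well, pin-dosed with compounds and incubated 16 h. Luciferase reagent was then added, and end-point luminescence was read after 10 min at room temperature.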
miR-21 reporter: miR-21 reporter, rising signal; HeLa miR-21 FLuc reporter, luciferase, 48 h; Potency, µM (highest dose often 38.3 µM), for the others: top-dose reporter change, positive = more light; 340,000 tested, under 10 active; AID 2288; active = well fitted rising curve with a large enough effect; inconclusive = small, poorly fitted or top-dose-only effect; inactive = no such curve, though single readings can be large or run the other way;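 further: % of control where 0% means no effect; miR-21 action dims this reporter so a rising signal means less miR-21 action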
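Compounds were titrated across several concentrations (up to approximately 40 uM) and incubated 48 hours with HeLa miR-21-FLuc reporter cells (miR-21 target sequence downstream of FLuc, endogenous miR-21). Readout was firefly luciferase luminescence after lytic detection reagent.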
Nrf2 activator: Nrf2 pathway activation; Potency, µM (series often up to 46.1 µM), for the others: top-dose activation, actives largely listed as activators; AREc32 ARE-luciferase reporter (MCF7-derived line), luminescence, 24 h; 0.31% of 410,000 active; note: potency is the fitted concentration of half-maximal effect; % of control where 0% means no effect; nearly all actives have a fitted effect of over 65% in size
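Reporter line AREc32 (ARE-Fluc), seeded overnight in OPTI-MEM with 5% FBS; compound pin-transferred, 24 hr at 37 deg C, 5% CO2; luminescent read-out.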
Active calls of the source: *; ? = inconclusive; . = no result. Unless noted, calls come from the whole dose curve; as a rule, active = well fitted curve in the direction sought with a large enough effect; inconclusive = small, poorly fitted or top-dose-only effect, or another doubt; inactive = no such curve, though single readings can be large; an effect the other way counts as inactive or inconclusive.

#1 O=C(Cc1nnc(CNC(=O)c2ccccc2)s1)Nc1ccc(C(F)(F)F)cc1Cl
#2 COc1cc(CCC(=O)Nc2ccc(C)c(S(=O)(=O)N(C)C)c2)cc(OC)c1OC
#3 COc1ccc(CCNCC(=O)Nc2ccc(C)c(S(=O)(=O)N(C)C)c2)cc1
#4 COc1ccc(NS(=O)(=O)c2ccc(C)c(C(=O)N(C)CCc3ccc(OC)c(OC)c3)c2)cc1
#5 COc1ccc(CCC(=O)Nc2ccc(C)c(S(=O)(=O)N(C)C)c2)cc1OC
#6 Cn1c2cc(CO)sc2c2cnn(Cc3ccccc3F)c(=O)c21
#7 CN(C)c1ccc(C=O)c(O)c1
#8 O=C(COc1ccccc1C(=O)Nc1cccc([N+](=O)[O-])c1)Nc1ccc(Br)cc1

entry no. | 1 | 2 | 3 | 4 | 5 | 6 | 7 | 8
miR-21 reporter | . | 11.8% | 4.0% | . | 22.2% | . | . | .
Nrf2 inh | 1.8% | 23.1µM* | -29.5% | 20.6µM* | 13µM* | 17.0% | . | .
Nrf2 activator | . | 2.2% | 9.0% | -0.6% | 0.0% | . | . | .
A549 tox | -1.3% | -13.7% | -2.8% | -28.8% | -1.8% | 15.7% | . | .
GRP78 ERSR act | . | -1.9% | -2.5% | -3.6% | -4.4% | . | -3.0% | -3.7%
PTAP TSG101 blk | . | -1.4% | -2.5% | -4.5% | 0.4% | . | . | .

#9 COc1ccc(CNC(=O)Cn2c(=O)nc(-c3ccccc3F)c3cc(Cl)ccc32)cc1OC
#10 O=C(c1cc2ccccc2oc1=O)N(c1ccccc1)C1C=CS(=O)(=O)C1 (configuration not stated)
#11 COc1ccc(N(C(=O)c2cc3ccccc3oc2=O)C2C=CS(=O)(=O)C2)cc1 (configuration not stated)
#12 COc1cc2c(C#N)c(N3CCN(c4ccccc4OC)CC3)nc(N)c2c(N)n1
#13 CCN1c2ccccc2NC2N=C(OC)C(c3ccccc3)C21 (configuration not stated)
#14 O=C(NC(=S)NCc1ccc(Cl)cc1Cl)c1ccco1
#15 O=C(NC(=S)Nc1cccc(O)c1)c1ccco1
#16 Cc1ccc2nsnc2c1NC(=S)NC(=O)c1ccco1

entry no. | 9 | 10 | 11 | 12 | 13 | 14 | 15 | 16
miR-21 reporter | ? | 5.0% | -6.0% | 26.5% | 23.4% | . | -50.4% | -8.3%
Nrf2 inh | . | 2.4% | 9.7% | 16.4µM* | ? | -16.4% | ? | 3.8%
Nrf2 activator | -0.2% | ? | 17.8µM* | -0.2% | 0.3% | 5.0% | 11.2µM* | 6.31µM*
A549 tox | 16.4µM* | -1.3% | 2.2% | ? | 20.6µM* | 4.4% | 1.7% | 1.8%
GRP78 ERSR act | -3.8% | 0.9% | 0.8% | -10.5% | -1.0% | 0.3% | 3.6% | -4.2%
PTAP TSG101 blk | . | -4.3% | -9.4% | 0.2% | . | 0.6% | -3.1% | -3.5%

#17 O=C(NC(=S)NCc1ccc(Cl)cc1)c1ccco1
#18 O=C(NC(=S)Nc1cccnc1Cl)c1ccco1
#19 CCC(C(=O)O)C1OC(C(C)C(O)C(C)C(=O)C(CC)C2OC3(C=CC(O)C4(CCC(C)(C5CCC(O)(CC)C(C)O5)O4)O3)C(C)CC2C)C(C)CC1C (configuration not stated)
#20 COCc1ccc(C(=O)N2CCOc3c(cc(-c4cc(C)c5cccc(OC)c5n4)cc3OC)C2)o1
#21 N#Cc1nc(Nc2ccc(Br)cc2)nc(NC2CCCC2)n1
#22 COc1ccc(NC(=O)[C@H](C)NC(N)=O)cc1S(=O)(=O)Nc1cc(C)ccc1Br
#23 COc1ccc(NS(=O)(=O)c2cc(NC(=O)CCSc3ccccc3)ccc2OC)cc1
#24 COc1ccc(NC(=O)C2CCC2)cc1S(=O)(=O)Nc1cc(C)ccc1Br

entry no. | 17 | 18 | 19 | 20 | 21 | 22 | 23 | 24
miR-21 reporter | . | -46.4% | . | . | . | -0.9% | -11.3% | .
Nrf2 inh | 16.4µM* | ? | . | . | ? | 1.8% | ? | 20.6µM*
Nrf2 activator | 7.3% | 12.6µM* | . | . | . | -0.5% | 1.8% | 0.4%
A549 tox | 5.6% | 14.1% | . | . | -17.7% | -6.5% | -7.2% | ?
GRP78 ERSR act | -4.3% | -2.2% | -5.2% | -2.5% | . | -4.4% | -2.6% | -5.0%
PTAP TSG101 blk | 2.1% | -1.0% | . | . | . | -11.9% | -3.5% | -0.5%

#25 COc1ccc(NC(=O)CCSc2ccc(C)cc2)cc1S(=O)(=O)Nc1ccccc1Cl
#26 Cc1ccc2c(c1)ncc[n+]2CC(=O)c1ccc(F)cc1
#27 Cc1oc(=O)c(NC(=O)c2ccccc2)cc1C(=O)c1ccccc1
#28 CC(=O)c1cc(NC(=O)c2ccccc2)c(=O)oc1C
#29 CCSc1nc2sc3c(c2c(=O)n1-c1ccc(OC)cc1)CCN(C)C3
#30 O=C(CNc1ccccc1)N/N=C/c1ccc([N+](=O)[O-])o1
#31 Cc1ccc(NCC(=O)N/N=C\c2ccc([N+](=O)[O-])o2)cc1
#32 O=C(CCC(=O)Nc1ccc(Cl)cc1Cl)N/N=C/c1ccc([N+](=O)[O-])o1

entry no. | 25 | 26 | 27 | 28 | 29 | 30 | 31 | 32
miR-21 reporter | 11.8% | . | 21.7% | -0.7% | 3.9% | 28.8% | 27.9% | ?
Nrf2 inh | 23.1µM* | . | 19.3% | 2.9% | 23.1µM* | 18.4µM* | 20.6µM* | 18.4µM*
Nrf2 activator | 0.3% | . | ? | 12.6µM* | 0.3% | 4.3% | 7.9% | 20.6%
A549 tox | 2.0% | . | . | -5.0% | -1.6% | ? | ? | -21.9%
GRP78 ERSR act | -1.2% | -0.2% | ? | 3.6% | 0.5% | -4.3% | -0.7% | 5.0%
PTAP TSG101 blk | -0.7% | . | -4.8% | -0.4% | -11.4% | -1.6% | -0.6% | -5.8%

#33 O=C(Cc1ccc2c(c1)OCO2)NN=Cc1ccc([N+](=O)[O-])o1
#34 CCCCCC(=O)N/N=C/c1ccc([N+](=O)[O-])o1
#35 CC(c1ccco1)N(C)c1ncnc2ccc(-c3ccc4c(c3)OCO4)cc12 (configuration not stated)
#36 CC(=O)N1CCN(c2ccc(NCc3cccc(C)c3)cc2)CC1
#37 CC(=O)N1CCN(c2ccc(NCc3ccc(F)cc3)cc2)CC1
#38 COc1cc(CNc2ccc(N3CCN(C(C)=O)CC3)cc2)ccc1OCc1ccc(F)cc1
#39 O=C(CNC(=O)C1CCCCC1)OC(C(=O)Nc1cc(C(F)(F)F)ccc1Cl)c1ccccc1 (configuration not stated)
#40 CC(C)CNc1nnnc2c1sc1nc(N3CCOCC3)c3c(c12)CC(C)(C)SC3

entry no. | 33 | 34 | 35 | 36 | 37 | 38 | 39 | 40
miR-21 reporter | . | 27.1% | . | . | 0.2% | -8.3% | . | -3.5%
Nrf2 inh | ? | . | -7.4% | 14.6µM* | ? | 16.4µM* | -10.9% | 13µM*
Nrf2 activator | 0.0% | 2.3% | . | 6.0% | 3.5% | 13.0% | . | 0.2%
A549 tox | -18.0% | -18.6% | 1.1% | -3.3% | -2.9% | -18.9% | 4.0% | -16.6%
GRP78 ERSR act | -4.3% | -1.0% | . | 0.7% | -0.5% | -1.5% | . | -2.0%
PTAP TSG101 blk | -3.1% | -5.5% | . | 1.2% | 0.2% | -8.8% | . | -3.5%

Sorted by the number under miR-21 reporter (falling): four from the list above
nr | SMILES | miR-21 reporter
34 | CCCCCC(=O)N/N=C/c1ccc([N+](=O)[O-])o1 | 27.1%
37 | CC(=O)N1CCN(c2ccc(NCc3ccc(F)cc3)cc2)CC1 | 0.2%
40 | CC(C)CNc1nnnc2c1sc1nc(N3CCOCC3)c3c(c12)CC(C)(C)SC3 | -3.5%
38 | COc1cc(CNc2ccc(N3CCN(C(C)=O)CC3)cc2)ccc1OCc1ccc(F)cc1 | -8.3%

Continued:
#41 CC1(C)Cc2c(c(N3CCOCC3)nc3sc4c(NCc5ccco5)nnnc4c23)CS1
#42 CN(CCO)C(=O)c1cn(C2CCN(Cc3c(F)cccc3Cl)CC2)nn1
#43 O=S(=O)(Nc1ccc(Cc2ccncc2)cc1)c1ccc(Cl)s1
#44 O=[N+]([O-])c1cccc(S(=O)(=O)NCc2ccncc2)c1
#45 Cc1ccc(NS(=O)(=O)c2ccc(OCC(=O)Nc3cccc([N+](=O)[O-])c3)c(C)c2)cc1

entry no. | 41 | 42 | 43 | 44 | 45
miR-21 reporter | -17.5% | . | 2.3% | 18.4% | 20.5%
Nrf2 inh | ? | . | 18.4µM* | 7.31µM* | 20.6µM*
Nrf2 activator | 4.6% | . | 0.0% | -0.4% | 3.3%
A549 tox | -11.1% | . | -0.4% | ? | ?
GRP78 ERSR act | 0.0% | -4.1% | -4.3% | 0.9% | 4.5%
PTAP TSG101 blk | 3.3% | . | -1.2% | -0.5% | -3.9%
